The term EC50 denotes the concentration needed to bring the measured effect to its halfway point.

A short description of assay [1]: (§1) In Vitro GIRK Thallium Flux Assay (2.5 minutes): Human Embryonic Kidney (HEK-293) cell lines co-expressing rat mGlu receptors 2, 3, 4, 6, 7 or 8 and G protein-coupled inwardly-rectifying potassium (GIRK) channels_ENREF_54 were grown in Growth Media containing 45% DMEM, 45% F-12, 10% FBS, 20 mM HEPES, 2 mM L-glutamine, antibiotic/antimycotic, non-essential amino acids, 700 μg/ml G418, and 0.6 μg/ml puromycin at 37° C. in the presence of 5% CO2. All cell culture reagents were purchased from Invitrogen Corp. (Carlsbad, Calif.) unless otherwise noted. Compound activity at the group II (mGlu2 and mGlu3) mGlus was assessed using thallium flux through GIRK channels. Briefly, cells were plated into 384-well, black-walled, clear-bottomed poly-D-lysine-coated plates at a density of 15,000 cells/20 μL/well in DMEM containing 10% dialyzed FBS, 20 mM HEPES, and 100 units/mL penicillin/streptomycin (assay media). Plated cells were incubated overnight at 37° C. in the presence of 5% CO2. The following day, the medium was exchanged from the cells to assay buffer [Hanks' balanced salt solution (Invitrogen) containing 20 mM HEPES, pH 7.3] using an ELX405 microplate washer (BioTek), leaving 20 μL/well, followed by the addition of 20 μL/well FluoZin2-AM (330 nM final concentration) indicator dye (Invitrogen; prepared as a stock in DMSO and mixed in a 1:1 ratio with Pluronic acid F-127) in assay buffer. […]. The following applies: HEK293, 2.5 min.

Assay [2] can be described thus: as §1. To be noted: HEK293, 2.5 min. The source holds these as a separate data set.
Assay [3] in a line: as §1, with “(60” for “(2.5”. To be noted: HEK293, 1 h.

Turning to `Cc1cc2c(cc1C(F)(F)F)NC(=O)CC(c1cccc(Oc3ncccn3)c1)=N2`, the EC50 in assay [1] came out at 420 nM; in assay [2], 370 nM; in assay [3], 150 nM.

Values taken from ChEMBL document CHEMBL5727031, “Metabotropic glutamate receptor negative allosteric modulators (NAMS) and uses thereof” (2018).
